Target: Hematopoietic prostaglandin D synthase (Homo sapiens, UniProt O60760)
Experiment: Inhibition of glutathione-S-transferase activity of prostaglandin D2 synthase

By UniProt entry, the sequences of proteins in these tests, tags left out. Where a name states a change or a piece, a line headed by the entry shows the natural chain unless it says otherwise.
UniProt O60760: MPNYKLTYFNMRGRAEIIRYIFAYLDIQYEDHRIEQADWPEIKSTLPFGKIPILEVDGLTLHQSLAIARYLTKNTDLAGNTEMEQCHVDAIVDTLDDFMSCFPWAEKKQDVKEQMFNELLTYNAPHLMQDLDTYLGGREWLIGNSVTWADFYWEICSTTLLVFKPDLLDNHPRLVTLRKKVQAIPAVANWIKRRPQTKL

SMILES: O=C(O)c1cnn(-c2ccccc2)c1
- IC50: 890 µM
